Tests used:
in vivo [1] = settings: mouse
in vivo [2] = settings: rat, ip
[3] = test system: GM-resistant, MCR-resistant and cefazolin-resistant strains; test: In vitro MIC on resistant strains; assay type: cell-based
Description: […]. […] […]

bacteria infected mice = test: In vivo therapeutic effect on bacteria infected mice
in vivo [4] = settings: mouse; remark: listed apart in the source
in vivo [5] = settings: rat

## CCNC1CC(N)C(OC2OC(CN)CCC2N)C(O)C1OC1OCC(C)(O)C(NC)C1O (stereo not drawn)
In vivo [1]; iv
  LD50: 79.9 mg/kg
In vivo [1]; sc
  LD50: 460 mg/kg
In vivo [2]
  NOAEL at 2160 h: 30 mg/kg/day
[3]
  MIC values relative to effective serum concentration range: half or more than half of GM-resistant, MCR-resistant and cefazolin-resistant strains are within its effective serum concentration range
Bacteria infected mice
  negative-turning ratio, culture of heart blood of survival mice: good negative-turning ratio
In vivo [4]; im
  LD50: 173 mg/kg
In vivo [4]; iv
  LD50: 65.5 mg/kg
In vivo [4]; sc
  LD50: 480 mg/kg
In vivo [5]; im
  LD50: 565 mg/kg
In vivo [5]; ip
  LD50: 628 mg/kg
In vivo [5]; iv
  LD50: 73.8 mg/kg
In vivo [5]; sc
  LD50: 403 mg/kg

— US5814488A
